Assay results reported in patent US12644099B2, “Methods for making T cell compositions” (2seventy bio, Inc., priority 2014, dated 2026).

Columns and labels:
Daudi tumor = experiment: Anti-tumor activity of cultured anti-BCMA CAR T cells in aggressive Daudi tumor model; type: in vivo
From the text: A more aggressive and difficult to treat tumor model was used to ascertain the anti-tumor activity of CAR T cells treated with IL-2, MK-2206, TCN, ZSTK474, IL7/15, or vehicle. Daudi tumor cells express a low level of BCMA protein and can be effectively treated using anti-BCMA CAR T cells. Daudi tumor progression was not affected after treatment with IL-2- or IL7/15-cultured anti-BCMA CAR T cells.

RPMI-8226 = experiment: Persistence of anti-BCMA CAR T cells: RPMI-8226 tumor rechallenge; type: in vivo, mice; conditions: rechallenged 13 days later with RPMI-8226 on the opposite flank after complete regression
Method: Persistence of anti-BCMA CAR T cells was evaluated by re-challenging tumors in mice that had complete regression. Animals treated with IL-2-, MK-2206-, or ZSTK474-cultured anti-BCMA CAR T cells that had completely regressed 100 mm^3 RPMI-8226 tumors were rechallenged 13 days later with RPMI-8226 on the opposite flank.

[1] = tested on: multiple myeloma tumors (RPMI-8226); experiment: Anti-tumor activity of cultured anti-BCMA CAR T cells in sub cutaneous multiple myeloma tumor model; type: in vivo, mice; conditions: 100 mm^3 sub cutaneous RPMI-8226 tumors; 1×10^6 CAR-positive cells infused
Method: Anti-BCMA CAR T cells treated with MK-2206, TCN, or ZSTK474 as described in Example 3 were tested to evaluate whether increased CD62L expression was associated with increased anti-tumor activity. T cells expressing anti-BCMA CARs were generated after culture with IL-2 and either MK2206, TCN, or ZSTK474. […] Animals with 100 mm^3 sub cutaneous multiple myeloma tumors (RPMI-8226) were infused with equivalent CAR T cell doses (1×10^6 CAR-positive cells).

IL-2: interleukin-2 (CellGenix), standard cytokine in the T cell culture media
anti-tumor activity (Daudi tumor progression) of anti-BCMA CAR T cells cultured with the agent (Daudi tumor): not affected
tumor outgrowth / engraftment after rechallenge in animals treated with anti-BCMA CAR T cells cultured with the agent (RPMI-8226): unable to prevent tumor outgrowth
anti-tumor activity of anti-BCMA CAR T cells cultured with the agent [1]: complete tumor regression
